The assay has as its target T1, human 5-HT2c (Homo sapiens, UniProt P28335).
T1 construct: expressed in transfected cells
Kind of assay: In vitro inhibition of [3H]-ligand binding to human 5-HT2C receptor. Particulars: CHO, saturation (Scatchard) and kinetic analysis. As for the experimental part: Cells stably expressing the human homologs of the receptors (dopamine D2L, serotonin 5HT2A and 5HT2C, α1A adrenergic; cloned and expressed at Hoechst Marion Roussel; Grandy et al., 1989; Monsma et al., 1993; Schwinn et al., 1995) were grown; cell membranes were prepared, and kept frozen until used (Kongsamut et al., 1996). The relevance of these binding sites has been extensively discussed in the literature (see for example: Carlsson & Carlsson, 1990; Creese et al., 1976; Gorman & Vargas, 1995; Meltzer et al., 1989). All binding parameters were optimized at Hoechst Marion Roussel; ligand Kds were determined using both saturation analysis (Scatchard) as well as kinetic analysis (association and dissociation rates). Each batch of membrane was validated by checking the ligand Kd, and rank order of potency of selected standard compounds. […]
Membranes were rapidly thawed and diluted to an appropriate concentration (between 20-150 μg protein/assay point depending on receptor expression level) in Tris buffer and homogenized. […] Microscint scintillation cocktail (40 μl) were added and the filter plates were counted in a Packard Top Count scintillation counter. Data were analyzed to determine Ki's for compounds of interest (Prusoff & Cheng, […]).Table: Receptor Binding Parameters.

Protein sequences, listed by entry. Tags and fused reporters are not part of them. Residues count along the entry.
UniProt P28335, 33-458: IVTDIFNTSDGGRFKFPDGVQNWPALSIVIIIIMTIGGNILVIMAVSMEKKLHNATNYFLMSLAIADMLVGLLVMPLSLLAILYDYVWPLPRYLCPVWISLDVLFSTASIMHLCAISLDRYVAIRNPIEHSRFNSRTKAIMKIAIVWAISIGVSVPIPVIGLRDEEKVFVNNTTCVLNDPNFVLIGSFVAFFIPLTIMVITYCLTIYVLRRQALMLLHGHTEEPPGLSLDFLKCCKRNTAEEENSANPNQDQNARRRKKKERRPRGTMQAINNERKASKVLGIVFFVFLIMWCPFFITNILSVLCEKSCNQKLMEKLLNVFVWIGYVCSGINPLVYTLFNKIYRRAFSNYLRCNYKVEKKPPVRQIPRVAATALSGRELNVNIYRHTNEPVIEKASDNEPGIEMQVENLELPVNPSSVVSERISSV

SMILES strings stand for the structures.

By Kd is commonly meant the concentration at which binding is half-saturated. Low readings indicate a tighter complex, high ones a looser complex. As for `CN1C[C@@H](NS(=O)(=O)N(C)C)C[C@@H]2c3cccc4c3c(cn4C)C[C@H]21` [[^3H]mesulergine, reference compound], binding was put at a Kd of 1.9 nM. This counts as single-digit nanomolar.

These data come from patent US6716986B2, “Sulfuric acid mono-[3-({1-[2-(4-fluoro-phenyl)-ethyl]-piperidin-4-YL}-hydroxy-methyl)-2-methoxy-phenyl]ester” (Aventis Pharmaceuticals Inc., priority 1999, dated 2004).
